US20220387407A1 (priority 2021, published 2022)

What was measured:
[1] = tested on: isoflurane-anesthetized rats
[2] = tested on: conscious rats; test: Analgesia assessment by tail-flick withdrawal assay in conscious rats; type: in vivo, Sprague-Dawley rats; conditions: fentanyl 25 μg/kg IV
[3] = tested on: freely-moving rats; test: Ventilatory recordings (whole-body plethysmography) in freely-moving rats, fentanyl-induced respiratory depression; conditions: L-NACme 500 mol/kg, 88.61 mg/kg IV, fentanyl 25 μg/kg IV after 10 min; FIG. 11

Row | Structure (SMILES) | fentanyl-induced change in MV after Tempol pretreatment ([1]; Tempol 100 mg/kg IV, then fentanyl 5 μg/kg IV) | peak decreases in cardiorespiratory parameters elicited by fentanyl, effect of Tempol ([1]; Tempol 25, 50 or 100 mg/kg IV, fentanyl 5 μg/kg IV, FIG. 6) | total fentanyl-induced decreases in Freq, TV and MV, effect of Tempol ([1]; Tempol 25, 50 or 100 mg/kg IV, fentanyl 5 μg/kg IV, FIG. 7 bottom panel) | total fentanyl-induced decreases in MAP, DBP and SBP (but not HR), effect of Tempol ([1]; Tempol 25, 50 or 100 mg/kg IV, fentanyl 5 μg/kg IV, FIG. 8 bottom panel) | fentanyl-induced decreases in ventilatory parameters after Tempol pretreatment ([1]; Tempol 25, 50 or 100 mg/kg IV, then fentanyl 5 μg/kg IV after 20 min, as the dose of Tempol was increased) | fentanyl-induced decreases in MAP, DBP and SBP after Tempol pretreatment ([1]; Tempol 25, 50 or 100 mg/kg IV, then fentanyl 5 μg/kg IV, particularly reduced after 50 and 100 mg/kg) | cardiorespiratory depression elicited by an infusion of fentanyl, effect of a bolus injection of Tempol ([1]; isoflurane-anesthetized rats, Tempol bolus during fentanyl infusion) | loss of analgesic effect of fentanyl at 4 PM, effect of Tempol given in the 10 AM study ([2]; Tempol 100 mg/kg IV at 10 AM, FIG. 10) | analgesic effects (increases in tail-flick latency) of fentanyl, effect of Tempol ([2]; Tempol 100 mg/kg IV, study commenced at 10 AM, FIG. 9) | ventilatory depressant effects (Freq, TV, MV) of fentanyl, effect of L-NACme pretreatment [3] | development of tolerance to the analgesic responses elicited by the second injection of fentanyl at 4 PM, effect of L-NACme ([2]; L-NACme 500 mol/kg IV at 10 AM, FIG. 12)
1 | CC1(C)CC(O)CC(C)(C)N1[O] [Tempol, 4-hydroxy-2,2,6,6-tetramethylpiperidine-N-oxyl] | returned to the elevated levels seen prior to injection of fentanyl | markedly diminishes | substantially blunted | substantially blunted | progressively and substantially smaller decreases | markedly diminished | immediately reversed | did not affect | not affected | – | –
2 | COC(=O)[C@H](CS)NC(C)=O | – | – | – | – | – | – | – | – | – | minimal effects | substantially blunted
